# Test results from publication PMC2776083 (ACS chemical biology, 2009).
# Sequences of proteins named here, by UniProt entry; tags and fusion partners are left off. A change or cut given only in a name is not applied to a line headed by its entry.
# UniProt P10275: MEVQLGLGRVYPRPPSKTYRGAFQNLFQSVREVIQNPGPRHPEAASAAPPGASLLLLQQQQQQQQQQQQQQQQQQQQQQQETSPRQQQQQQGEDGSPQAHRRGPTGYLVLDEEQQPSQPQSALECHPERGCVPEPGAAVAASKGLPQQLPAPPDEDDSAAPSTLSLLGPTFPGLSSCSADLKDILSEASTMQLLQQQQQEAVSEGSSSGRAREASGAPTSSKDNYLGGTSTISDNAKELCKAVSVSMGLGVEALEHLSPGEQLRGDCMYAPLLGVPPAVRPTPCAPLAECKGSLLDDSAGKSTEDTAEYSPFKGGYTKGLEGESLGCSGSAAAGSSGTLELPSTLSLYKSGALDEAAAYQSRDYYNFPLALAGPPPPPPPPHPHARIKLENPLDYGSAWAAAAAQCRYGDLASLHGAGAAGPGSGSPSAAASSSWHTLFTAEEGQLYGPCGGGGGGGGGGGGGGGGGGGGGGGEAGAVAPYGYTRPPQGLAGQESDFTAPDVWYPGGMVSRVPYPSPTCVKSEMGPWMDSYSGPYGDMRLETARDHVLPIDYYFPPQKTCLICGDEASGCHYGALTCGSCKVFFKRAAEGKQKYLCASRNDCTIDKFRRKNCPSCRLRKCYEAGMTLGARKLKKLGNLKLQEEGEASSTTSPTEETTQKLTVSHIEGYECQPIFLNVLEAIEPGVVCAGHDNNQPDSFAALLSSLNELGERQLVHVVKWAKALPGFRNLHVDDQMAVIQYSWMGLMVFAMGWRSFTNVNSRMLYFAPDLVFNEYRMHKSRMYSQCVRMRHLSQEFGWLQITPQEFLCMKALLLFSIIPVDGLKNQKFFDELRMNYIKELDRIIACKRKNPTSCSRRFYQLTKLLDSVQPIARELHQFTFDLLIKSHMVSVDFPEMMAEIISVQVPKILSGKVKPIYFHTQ
# Target: AR (Homo sapiens, UniProt P10275)
# Assay: whole cell 3H-DHT radioligand competition binding assay in HEK293/C-AR-Y cells
substance,measurement,value
thimerosal,DHT Binding IC50,no effect
